Measured values as given in ChEMBL document CHEMBL5236617, “Rapid Evolution of a Fragment-like Molecule to Pan-Metallo-Beta-Lactamase Inhibitors: Initial Leads toward Clinical Candidates” (J Med Chem, 2022).

Columns and labels:
[1] = Selectivity ratio of MITC50 for IMP-1 expressing Serratia marcescens to IC50 for GST-tagged bacterial beta-lactamase IMP-1
[2] = Selectivity ratio of MITC50 for NDM-1 expressing Escherichia coli to IC50 for GST-tagged bacterial beta-lactamase […]
[3] = Selectivity ratio of MITC50 for VIM-1 expressing Klebsiella pneumoniae to IC50 for GST-tagged bacterial beta-lactamase VIM-1
[4] = Inhibition of GST-tagged bacterial beta-lactamase IMP-1 expressed in Escherichia coli BL21(DE3) using CCF2-FA as substrate by fluorescence assay; parameters: species or system Bacteria

Row | Compound | Selectivity ratio [1] | Selectivity ratio [2] | Selectivity ratio [3] | IC50 [4] [µM]
1 | NS(=O)(=O)c1nccc(-c2ccc(CO)cc2)c1-c1nn[nH]n1 | 14 | 15 | 43 | 
2 | NS(=O)(=O)c1cccc(-c2ccnc(CO)c2)c1-c1nn[nH]n1 |  |  |  | 2.53
3 | NS(=O)(=O)c1ccnc(-c2ccc(CO)cc2)c1-c1nn[nH]n1 | 48 | 63 |  | 
